{
  "source": "PubChem BioAssay AID493008",
  "about": "(The Scripps Research Institute Molecular Screening Center, 2010)",
  "note": "The list shows a part of the results, in another mix than the full data. The source made the active and inactive calls.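 Rule for the calls: active = activation above the mean over all tested compounds plus 3 SD (cut at about 30% in these data); inactive = the rest.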",
  "data": [
    {"biological_target": "Troponin I, cardiac muscle (Homo sapiens) + Troponin T, cardiac muscle (Homo sapiens) + Troponin C, slow skeletal and cardiac muscles (Homo sapiens) (UniProt P19429+P45379+P63316)", "assay": "cardiac RTF calcium sensitivity activators, primary screen, biochemical, IANBD-TnC fluorescence, EC20 calcium (AID 493008);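 note: rise in fluorescence read as greater calcium sensitivity of cardiac thin filaments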", "details": "IANBD-labeled TnC RTF fluorescence at EC20 calcium; at 7.2 µM; hits give high values; 0% EC20 calcium, 100% full calcium", "values": [
      {"smiles": "O=P1(N(CCCl)CCCl)OCCCS1", "note": "(stereo not drawn)", "activation": "inactive: -1.25%"},
      {"smiles": "O=C(Nc1cc([As](=O)(O)O)ccc1O)c1ccccc1", "activation": "inactive: 7.28%"},
      {"smiles": "CC(C)(C)C(=O)NC(Sc1ccncn1)C(Cl)(Cl)Cl", "note": "(stereo not drawn)", "activation": "inactive: 4.34%"},
      {"smiles": "O=[N+]([O-])c1ncn(CCn2ncnc2[N+](=O)[O-])n1", "activation": "inactive: -2.92%"},
      {"smiles": "COC(=O)C1(C)COP(=O)(Nc2ccccc2)OC1", "note": "(stereo not drawn)", "activation": "inactive: 10.7%"},
      {"smiles": "O=[N+]([O-])c1cccc(NC2=NCC(CBr)S2)c1", "note": "(stereo not drawn)", "activation": "inactive: 2.46%"},
      {"smiles": "O=C(O)CNc1ccc([As](=O)(O)O)cc1", "activation": "inactive: 0.75%"},
      {"smiles": "COc1ccc(C2=NCC(CBr)S2)cc1", "note": "(stereo not drawn)", "activation": "inactive: 2.04%"},
      {"smiles": "O=[N+]([O-])c1cccc2n[nH]nc12", "activation": "inactive: 6.49%"},
      {"smiles": "CC(=O)N1C2C3N(C(C)=O)C1C1N(C(C)=O)C(C(N1C(C)=O)N3C(C)=O)N2C(C)=O", "activation": "inactive: -3.73%"},
      {"smiles": "CCc1nc2c(n1)c1c(non1O)c1c2no[n+]1[O-]", "activation": "inactive: 1.51%"},
      {"smiles": "O=[N+]([O-])c1cc([N+](=O)[O-])c(CCNc2ccccc2)c([N+](=O)[O-])c1", "activation": "inactive: 0.62%"},
      {"smiles": "Cc1ccc(NP(=O)(Oc2ccccc2)Oc2ccccc2)nc1", "activation": "inactive: 4.44%"},
      {"smiles": "C[N+]1=C2C=CC=CC=C2SC12C([N+](=O)[O-])=CC([N+](=O)[O-])=C[C-]2[N+](=O)[O-]", "note": "(stereo not drawn)", "activation": "inactive: -6.21%"},
      {"smiles": "Nc1ccc([As](=O)(O)c2ccc(N)cc2)cc1", "activation": "inactive: 8.35%"},
      {"smiles": "CCN(/C(=N/P(=O)(N1CCOCC1)N1CCOCC1)N1CCOCC1)c1ccc(OC)cc1", "activation": "inactive: 0.55%"},
      {"smiles": "CN(C)C(=O)OCCc1n(C)cc[n+]1C", "activation": "inactive: 0.27%"},
      {"smiles": "CC(C)=N/N=C(\\N)N[N+](=O)[O-]", "activation": "inactive: -5.47%"},
      {"smiles": "CC1CCN(C(=O)Oc2c(Cl)cc(Cl)c3cccnc23)CC1", "activation": "inactive: 2.68%"},
      {"smiles": "CC(C)C(=O)NC(Sc1ccccc1)C(Cl)(Cl)Cl", "note": "(stereo not drawn)", "activation": "inactive: -4.54%"},
      {"smiles": "O=P(Nc1nccs1)(c1ccccc1)c1ccccc1", "activation": "inactive: 1.71%"},
      {"smiles": "c1nnnn1CCn1cnnn1", "activation": "inactive: 9.79%"},
      {"smiles": "COc1ccc(N)c([N+](=O)[O-])c1[N+](=O)[O-]", "activation": "inactive: 1.14%"},
      {"smiles": "O=P(Nc1ccccn1)(c1ccc(Br)cc1)c1ccc(Br)cc1", "activation": "inactive: 8.01%"},
      {"smiles": "CN(C)C1(CNC(=O)c2ccc(Cl)c(S(N)(=O)=O)c2)CCCCC1", "activation": "inactive: -3.34%"},
      {"smiles": "C[C@H]1OP(=O)(Oc2ccccc2)[C@H](O)[C@H](O)[C@H]1N=[N+]=[N-]", "note": "(stereo partly drawn)", "activation": "inactive: -4.35%"},
      {"smiles": "O=P(Nc1nc2ccccc2s1)(c1ccccc1)c1ccccc1", "activation": "inactive: -6.8%"},
      {"smiles": "O=[N+]([O-])c1ccc(O)c(/C=N/Nc2ccc([N+](=O)[O-])cc2[N+](=O)[O-])c1", "activation": "inactive: -3.82%"},
      {"smiles": "O=[N+]([O-])c1ncn(CCn2cnc([N+](=O)[O-])n2)n1", "activation": "inactive: -0.73%"},
      {"smiles": "CC(=O)NC(SC(=S)N(C)C)C(Cl)(Cl)Cl", "note": "(stereo not drawn)", "activation": "inactive: 1.25%"},
      {"smiles": "O=[As](O)(c1ccccc1)c1ccc(O)cc1", "activation": "inactive: -1.25%"},
      {"smiles": "C(Cc1nn[nH]n1)Cc1nn[nH]n1", "activation": "inactive: 3.35%"},
      {"smiles": "Nc1ccc([As](=O)(O)c2ccc([N+](=O)[O-])cc2)cc1", "activation": "inactive: 4.71%"},
      {"smiles": "O=C(OC1CN2CCC1CC2)c1cccc(Cl)c1", "note": "(stereo not drawn)", "activation": "inactive: 1.03%"},
      {"smiles": "CCNC(=S)/N=C(\\N)N[N+](=O)[O-]", "activation": "inactive: -0.82%"},
      {"smiles": "O=C(NC1CCS(=O)(=O)C1)NP(=S)(Oc1ccccc1)Oc1ccccc1", "note": "(stereo not drawn)", "activation": "inactive: -9.11%"},
      {"smiles": "O=P1(N(CCCl)CCCl)OCCC2CCCCN21", "note": "(stereo not drawn)", "activation": "inactive: -3.29%"},
      {"smiles": "Cc1ccc(OP(=O)(Nc2ccccn2)Oc2ccc(C)cc2)cc1", "activation": "inactive: -0.52%"},
      {"smiles": "CC(=O)NC(SC(=S)N(CC(C)C)CC(C)C)C(Cl)(Cl)Cl", "note": "(stereo not drawn)", "activation": "inactive: 1.95%"},
      {"smiles": "COC(=O)c1cc2c(s1)N=C(c1ccccc1)N(C)P2(=O)N1CCOCC1", "note": "(stereo not drawn)", "activation": "inactive: -0.32%"},
      {"smiles": "CCC(=O)N1C2C3N(C(=O)CC)C1C1N(C(=O)CC)C(C(N1C(=O)CC)N3C(=O)CC)N2C(=O)CC", "activation": "inactive: 7.69%"},
      {"smiles": "O=C(OC1CN2CCC1CC2)c1ccccc1", "note": "(stereo not drawn)", "activation": "inactive: -3.71%"},
      {"smiles": "O=c1c2cc([N+](=O)[O-])ccc2[nH]c2c([N+](=O)[O-])cc([N+](=O)[O-])cc12", "activation": "inactive: 0.17%"},
      {"smiles": "CN(C)C(=O)Oc1noc2ccccc12", "activation": "inactive: -3.25%"},
      {"smiles": "CC(NC(=O)COC(=O)C(O)(c1ccccc1)c1ccccc1)c1ccccc1", "note": "(stereo not drawn)", "activation": "inactive: -1.35%"},
      {"smiles": "Cc1ccccc1OP(=O)(Nc1ccccn1)Oc1ccccc1C", "activation": "inactive: 9.88%"},
      {"smiles": "CCOc1ccc(C2=NCC(CBr)S2)cc1", "note": "(stereo not drawn)", "activation": "inactive: -6.62%"},
      {"smiles": "O=P1(Nc2nc3ccc(Cl)cc3s2)COc2ccccc2O1", "note": "(stereo not drawn)", "activation": "inactive: 7.52%"},
      {"smiles": "CCc1cc(O)c([N+](=O)[O-])c(C)c1[N+](=O)[O-]", "activation": "inactive: -0.59%"},
      {"smiles": "CC(C)(C)C(=O)NC(Sc1ccccc1)C(Cl)(Cl)Cl", "note": "(stereo not drawn)", "activation": "inactive: -0.77%"},
      {"smiles": "COC(=O)C1(C)COP(=O)(NCc2ccccc2)OC1", "note": "(stereo not drawn)", "activation": "inactive: -3.84%"},
      {"smiles": "CC(=O)c1ccc(N2CC2c2ccncc2)cc1", "note": "(stereo not drawn)", "activation": "inactive: -5.04%"},
      {"smiles": "N#C/C(=C\\c1ccc(N(CCBr)CCBr)cc1)C(N)=O", "activation": "inactive: 3.26%"},
      {"smiles": "C[C@H]1OP(=O)(Oc2ccccc2)C[C@@H]2O[C@@H]21", "note": "(stereo partly drawn)", "activation": "inactive: 1.88%"},
      {"smiles": "C[C@@H]1C=CCP(=O)(Oc2ccccc2)O1", "note": "(stereo partly drawn)", "activation": "inactive: -1.75%"},
      {"smiles": "Cc1ccccc1CN(C)C(=O)COC(=O)C(O)(c1ccccc1)c1ccccc1", "activation": "inactive: -0.66%"},
      {"smiles": "CC(=O)Nc1ccc(Oc2c([N+](=O)[O-])cc([N+](=O)[O-])cc2[N+](=O)[O-])cc1", "activation": "inactive: 0.12%"},
      {"smiles": "CC(=O)Nc1ccc([As](=O)(O)O)c(O)c1", "activation": "inactive: 0.27%"}
    ]}
  ]
}
